The text below walks through data of ChEMBL document CHEMBL1136581, “Synthesis of dopamine transporter selective 3-[2-(diarylmethoxyethylidene)]-8-alkylaryl-8-azabicyclo[3.2.1]octanes” (Bioorg Med Chem Lett, 2003).

The chains behind the UniProt entries cited, without tags or fusion partners.
UniProt P23977, whole entry: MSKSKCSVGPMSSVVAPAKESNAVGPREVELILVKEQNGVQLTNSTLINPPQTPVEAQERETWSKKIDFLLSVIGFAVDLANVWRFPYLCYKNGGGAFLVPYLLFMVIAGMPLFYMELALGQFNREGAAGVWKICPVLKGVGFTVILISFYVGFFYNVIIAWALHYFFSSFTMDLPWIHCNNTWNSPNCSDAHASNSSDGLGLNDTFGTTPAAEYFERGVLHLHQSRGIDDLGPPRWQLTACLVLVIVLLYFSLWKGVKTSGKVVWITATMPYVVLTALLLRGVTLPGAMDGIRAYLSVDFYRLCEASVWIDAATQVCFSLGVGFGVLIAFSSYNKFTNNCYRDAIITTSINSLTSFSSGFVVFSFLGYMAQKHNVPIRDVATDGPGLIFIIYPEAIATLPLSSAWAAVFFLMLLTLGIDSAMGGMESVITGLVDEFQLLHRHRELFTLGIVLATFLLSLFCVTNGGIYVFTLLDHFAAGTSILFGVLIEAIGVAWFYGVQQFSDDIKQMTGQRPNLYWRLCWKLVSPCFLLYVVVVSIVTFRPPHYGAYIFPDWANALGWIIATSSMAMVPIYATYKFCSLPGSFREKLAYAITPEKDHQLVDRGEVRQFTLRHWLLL

As a reminder, the Ki is a measure of affinity in units of concentration, obtained from inhibition or displacement.

This assay deals with Sodium-dependent dopamine transporter (Rattus norvegicus, UniProt P23977). Kind of assay: Binding affinity at dopamine transporter from rat caudate-putamen tissue by [3H]WIN-35428 displacement. In a few lines: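 Compounds were tested as oxalate salts. Ki values are the mean ± SEM of three experiments, each run in triplicate.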

In turn, `Fc1ccc(C(OCC=C2CC3CCC(C2)N3Cc2ccccc2)c2ccc(F)cc2)cc1` registered a Ki of 7.9 nM.
